Results published in ChEMBL document CHEMBL4028816, “Discovery of a potent inhibitor of MELK that inhibits expression of the anti-apoptotic protein Mcl-1 and TNBC cell growth” (Bioorg Med Chem, 2017).

Sequences of proteins named here, by UniProt entry; tags and fusion partners are left off. A change or cut given only in a name is not applied to a line headed by its entry.
UniProt Q14680: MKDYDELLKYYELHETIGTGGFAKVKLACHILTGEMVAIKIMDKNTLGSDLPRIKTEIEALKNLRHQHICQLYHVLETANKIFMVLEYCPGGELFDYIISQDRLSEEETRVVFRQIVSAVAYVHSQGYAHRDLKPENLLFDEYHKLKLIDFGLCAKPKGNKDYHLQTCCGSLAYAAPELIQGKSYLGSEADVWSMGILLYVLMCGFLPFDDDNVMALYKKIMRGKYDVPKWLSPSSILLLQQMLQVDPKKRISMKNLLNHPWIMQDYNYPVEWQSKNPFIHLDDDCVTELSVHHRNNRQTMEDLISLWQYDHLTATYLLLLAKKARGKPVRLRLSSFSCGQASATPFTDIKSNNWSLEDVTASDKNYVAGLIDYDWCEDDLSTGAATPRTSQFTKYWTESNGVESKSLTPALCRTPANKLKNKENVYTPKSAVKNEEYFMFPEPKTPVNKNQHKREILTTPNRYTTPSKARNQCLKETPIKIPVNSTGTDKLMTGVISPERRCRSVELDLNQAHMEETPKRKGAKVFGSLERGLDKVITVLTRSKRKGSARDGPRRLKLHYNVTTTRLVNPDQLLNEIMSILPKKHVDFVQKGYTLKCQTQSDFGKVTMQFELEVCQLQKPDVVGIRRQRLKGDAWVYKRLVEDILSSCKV

Target: Maternal embryonic leucine zipper kinase (Homo sapiens, UniProt Q14680)
Test: Inhibition of His6-tagged MELK catalytic domain (1 to 340 residues) (unknown origin) expressed in Escherichia coli BL21 (DE3) cells using Bcl-GL as substrate measured after 30 mins in presence of [gamma32P]ATP by liquid scintillation counting method

CN1CCN(CC(=O)N(C)c2ccc(N/C(=C3\C(=O)Nc4ccc(C(=O)N(C)C)cc43)c3ccccc3)cc2)CC1
IC50: 67 nM
Ki: 8.8 nM
